Laboratory results from patent US5441941A, “1,2-dihydroellipticines with activity against CNS specific cancer” (The United States of America as represented by the …, priority 1993, dated 1995).

Test system: DMS 114
Assay: cells
Conditions: Homo sapiens, DMS-114, read-out: Percent Growth

COc1ccc2[nH]c3c(C)c4c(c(C)c3c2c1)CN(C)C=C4 [Formula VII] was tested, and the activity at 0.01 µM was 79%.
